In patent US10233249B2, “Antibodies and methods for treating estrogen receptor-associated diseases” (BEIJING SHENOGEN PHARMA GROUP LTD., priority 2013, dated 2019):

Tested on: BCAP37 breast cancer xenograft
Assay: BCAP37 breast cancer xenograft model
Format: in vivo
Settings: NOD-SCID mice, 1.25, 5 and 20 mg/kg SNGmB1, 3 mg/kg Herceptin, 17 days
Protocol: The ability of anti-ER-α36 antibody in inhibiting human tumor cell growth in Xenograft model was assessed using BCAP37 breast cancer model. […] The cells were implanted into NOD-SCID mice. When the tumor grown to 80-120 mm3 size, the mice were randomized into groups of 10 mice and been treated either with mouse IgG2b or SNGmB1 antibody or Herceptin, at a does of 1.25, 5 and 20 mg/kg for SNGmB1, or 3 mg/kg for Herceptin. After 17 days of treatment, the tumors were excised, and both tumor weight and volume were measured.

“Herceptin: anti-HER2 antibody [reference compound]” was tested, and the “inhibition of tumor growth” value was “inhibit tumor growth”.
